Legend:
human β-Secretase [1] = target: T1, human β-Secretase (Homo sapiens (Human), UniProt P56817); assay: TR-FRET assay; type: biochemical; details: sBACE-Fc 2.7 μg/ml, substrate 100 nM, pH 4.5, 15 minutes at RT
Procedure: The β-secretase enzyme used in the TR-FRET is prepared as follows:
(§1) The cDNA for the soluble part of the human β-Secretase (AA 1-AA 460) was cloned using the ASP2-Fc10-1-IRES-GFP-neoK mammalian expression vector. The gene was fused to the Fc domain of IgG1 (affinity tag) and stably cloned into HEK 293 cells.
(§2) The enzyme (truncated form) was diluted to 6 μg/mL (stock 1.3 mg/mL) and the TruPoint BACE1 Substrate to 200 nM (stock 120 μM) in reaction buffer (NaAcetate, chaps, triton x-100, EDTA pH4.5). Enzyme and compound in dimethylsulphoxide (final DMSO concentration 5%) was mixed and pre-incubated for 10 minutes at RT. Substrate was then added and the reaction was incubated for 15 minutes at RT. The reaction was stopped with the addition of 0.35 vol Stop solution (NaAcetate, pH 9). The fluorescence of the product was measured on a Victor II plate reader with excitation wavelengths of 340-485 nm and emission wavelengths of 590-615 nm. […] The dimethylsulphoxide control, instead of test compound, defined the 100% activity level and 0% activity was defined by wells lacking enzyme (replaced with reaction buffer) or by a saturating dose of a known inhibitor, 2-amino-6-[3-(3-methoxyphenyl)phenyl]-3,6-dimethyl-5H-pyrimidin-4-one.

By UniProt entry, the sequences of proteins in these tests, tags left out. Residues count along the entry.
UniProt P56817, 22-460: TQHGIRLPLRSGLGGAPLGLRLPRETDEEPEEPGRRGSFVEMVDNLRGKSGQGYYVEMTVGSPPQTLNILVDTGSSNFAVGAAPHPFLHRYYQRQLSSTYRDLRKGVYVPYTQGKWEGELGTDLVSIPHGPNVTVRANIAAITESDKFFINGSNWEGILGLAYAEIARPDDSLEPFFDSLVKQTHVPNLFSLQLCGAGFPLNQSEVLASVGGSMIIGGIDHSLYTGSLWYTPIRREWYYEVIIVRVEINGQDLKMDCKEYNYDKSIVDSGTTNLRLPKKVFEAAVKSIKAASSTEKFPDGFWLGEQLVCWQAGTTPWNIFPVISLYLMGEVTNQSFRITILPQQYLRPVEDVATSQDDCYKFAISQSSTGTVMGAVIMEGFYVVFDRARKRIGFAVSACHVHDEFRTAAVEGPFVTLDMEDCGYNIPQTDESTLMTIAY

human β-Secretase [2] = target: T1, human β-Secretase; assay: Diluted TR-FRET assay; type: biochemical; details: footnote a: diluted FRET assay, 50 times less enzyme, 6.5 h reaction time at r.t.; read-out: IC50 in TR-FRET assay (IC50 from the diluted FRET assay)
Procedure: as §1, §2
Compounds with a high affinity were further tested in a diluted TR-FRET assay, conditions as described above for the TR-FRET assay, but with 50 times less enzyme and a 6.5 h long reaction time at r.t. in the dark.

An IC50 (human β-Secretase [1]) of 4.87 µM was found for `CC1=NC2(N=C1N)c1cc(Br)ccc1CCC21CC1` (centres unmarked) [Example 1, 7′-Bromo-5″-methyl-3′,4′-dihydrodispiro[cyclopropane-1,2′-naphthalene-1′,2″-imidazol]-4″-amine] in this work.

An IC50 (human β-Secretase [2]) of 0.03 µM was found for `CC1=NC2(N=C1N)c1cc(-c3cncc(Cl)c3)ccc1CCC21CC1` (centres unmarked) [Example 4, 7′-(5-Chloropyridin-3-yl)-5″-methyl-3′,4′-dihydrodispiro[cyclopropane-1,2′-naphthalene-1′,2″-imidazol]-4″-amine] in this work.
